The subject of this assay is microbial enrichment cultures. The assay is described as follows: Inhibitory potency (IC50) of inorganic compounds against growth and ammonium production, microbial enrichment with yeast extract.

With Sodium bromate, the “NH4^+ IC50/growth IC50 ratio” value was 53.7262.

The values are drawn from US10961163B2, “Compositions and methods useful for enhancing the microbial conversion of nitrate into ammonium” (The Regents of the University of California, priority 2016, dated 2021).
